Where two headings read alike, the source gives them in different places.
Target: 5-HT3R (Cavia porcellus, UniProt O70212)
Settings: percent of maximal contraction of guinea pig ileum induced by control agonist (5-HT)

Chains of the proteins cited; added tags and fusions are not shown. Residues count along the entry.
UniProt O70212, 20-490: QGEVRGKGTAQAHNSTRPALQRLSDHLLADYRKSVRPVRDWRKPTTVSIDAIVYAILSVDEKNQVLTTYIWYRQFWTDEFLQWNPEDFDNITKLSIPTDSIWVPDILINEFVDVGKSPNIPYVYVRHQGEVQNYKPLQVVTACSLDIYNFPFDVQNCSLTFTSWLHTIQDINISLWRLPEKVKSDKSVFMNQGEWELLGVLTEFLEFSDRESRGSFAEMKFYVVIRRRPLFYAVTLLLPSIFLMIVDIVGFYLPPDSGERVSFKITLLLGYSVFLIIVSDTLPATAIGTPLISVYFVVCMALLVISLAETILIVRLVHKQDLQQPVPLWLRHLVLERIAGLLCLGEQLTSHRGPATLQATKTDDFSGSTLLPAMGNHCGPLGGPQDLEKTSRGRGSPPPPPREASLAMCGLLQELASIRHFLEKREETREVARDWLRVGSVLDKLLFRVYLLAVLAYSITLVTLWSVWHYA

Row | SMILES | agonist effect (100 nM) [%] | agonist effect (300 nM) [%]
1 | c1ccc2c(c1)nc(N1CCNCC1)c1cc[nH]c12 [Compound 5e, 4-(Piperazin-1-yl)-1H-pyrrolo[3,2-c]quinoline] | 9 | 43
2 | CN1CCN(c2nc3ccccc3c3[nH]ccc23)CC1 [Compound 5d, 4-(4-Methylpiperazin-1-yl)-1H-pyrrolo[3,2-c]quinoline] | 100 | –
